Values quoted from earlier work, collected in patent US20140220152A1, “Compositions and Methods for Detecting, Treating, or Preventing Reductive Stress” (University of Utah Research Foundation, priority 2007, published 2014).

Tested on: human fibrinogen
Conditions: in vitro

For “Human serum albumin: serum albumin; thirty-four out of thirty-five cysteines exist as oxidized disulfides”, the “hydroxy radical-induced aggregation of human fibrinogen” value is given as “prevents”.
